The target in the test is Carbonic anhydrase 2 (Homo sapiens, UniProt P00918).

In turn, `NS(=O)(=O)c1ccc2[nH]c(-c3cscn3)nc2c1` came in with a Ki of 72.5 nM.

A word on the Ki: it is a dissociation constant, usually derived from enzyme kinetics or from competition with a known ligand. A high value points to a looser hold on the target.

For the origin of these results see ChEMBL document CHEMBL1152885 (Bioorg Med Chem Lett, 2009).
